# This is a sample that favours compounds with a hit; in the whole collection about 4.2% have one here.
# MC4R antag cAMP – blocks human MC4R cAMP signaling. inhibition, % at 6.5 µM. actives 0.48% (n = 360,000). MC4R-expressing cells, MTII-stimulated cAMP, LANCE TR-FRET. AID 540295. P32245;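 active = inhibition above its plate's cutoff, the mean of tested wells on that plate plus 3 SD, cut at about 29% in these data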;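 also: 0% = Melanotan II alone and 100% = Melanotan II plus saturating MCL0020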
#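 Material: human MC4R-expressing U2OS cells. Probe or stimulus: Melanotan II challenge. Dosing: 6.5 µM single dose. Times: 30-min compound, 1-h challenge, 1-h detection, room temperature. Technique: TR-FRET with Eu-cAMP and labeled anti-cAMP, 671 nm. Replication: singlicate.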
# NALP1 inh – NALP1 inhibition. inhibition, % at 10 µM. S. cerevisiae NALP1/ASC/caspase-1 growth, X-gal OD620, 72 h. actives 0.61% (n = 280,000); in the data active = inhibition mostly above about 24%, no sharp cut-off; inactive = mostly below about 32%
# HDAC3 inh – blocks human histone deacetylase 3. O15379. recombinant HDAC3, fluorogenic peptide/trypsin coupled, fluorescence. inhibition, % at 8.3 µM. actives 0.15% (n = 320,000). AID 2718; in the data active = inhibition above about 26%, passing the limit was not always enough; inconclusive = no clear call, values can overlap the other calls
# Yeast UUG start – alters start codon recognition fidelity in yeast | S. cerevisiae UUG-firefly luciferase reporter, luminescence/redox ratio | activity score, % at 18.7 µM | 350,000 compounds, 0.13% hits | AID 602363;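 active = replicate mean at a twofold rise or more, about +100% in these data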;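 note: firefly luciferase made from a UUG start codon reports start codon fidelity; reporter light over untreated wells divided by growth signal over untreated wells; some hits fall short of that in this replicate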
# MC4R ag barr – activates human MC4R beta-arrestin recruitment. P32245. U2OS MC4R beta-arrestin complementation, luminescence; percent of melanotan II response, DMSO zero. activation, % at 8.9 µM. actives 0.98% (n = 360,000);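 active = activation above a per-plate cutoff, the mean activation of sample wells on that plate plus 3 SD, cut at about 8% in these data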
# ALR inh – inhibitors of human ALR sulfhydryl oxidase, primary screen, biochemical, H2O2 detection, HRP-luminol luminescence, single point; purified ALR, DTT oxidation; inhibition, % (no concentration beside the values); 290,000 tested, 3.8% active;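 active = mean and each replicate at 75% or more; inconclusive = only one of the two met; inactive = neither met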;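 also: stock transfer was 7.5 nL into about 7.5 µL; 0% = neutral wells and 100% = wells with inactivated enzyme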
# * hit, by the source's call; ? = inconclusive; . = no result given.
item | Molecule | MC4R antag cAMP | NALP1 inh | HDAC3 inh
1 | Cc1noc(C)c1S(=O)(=O)Nc1ccc2c(c1)C(=O)N([C@@H](C)CO)C[C@@H](C)[C@H](CN(C)C(=O)CCC(F)(F)F)OCCCC[C@H](C)O2 | . | . | .
2 | C[C@H](CO)N1C[C@H](C)[C@H](CN(C)S(C)(=O)=O)OCCCC[C@H](C)Oc2ccc(N(C)C)cc2C1=O | . | . | .
3 | Nc1c(C(=O)NCC2CCCO2)sc(=S)n1-c1ccccc1 (stereo not given) | -1.5 | 2.5 | 3.4
4 | O=C(NCc1ccco1)c1sc(=S)n2c1[nH]c(=O)c1ccccc12 | 9.5 | -6.1 | 4.5
5 | O=C(NC1CCCC1)c1sc(=S)n2c1[nH]c(=O)c1ccccc12 | 2.7 | -9.1 | -4.4
6 | COC(=O)Cc1csc(Nc2ccccc2)n1 | 3.4 | 34.5 | -1.1
7 | COC(=O)Cc1nc(Nc2ccccc2)sc1C | 3.2 | 22.2 | -4.8
8 | CN(C)CC(=O)N[C@H]1CC[C@H](CC(=O)NCc2ccc(Cl)cc2)O[C@H]1CO | . | . | .
9 | COCCN(CCOC)C(=O)c1ccc(CSc2nc3ccccc3s2)cc1 | 0.0 | 14.8 | 2.7
10 | Cc1ccc(S(=O)(=O)NCC[C@@H]2CC[C@H](NS(=O)(=O)c3ccccc3Cl)[C@@H](CO)O2)cc1 | . | . | .
11 | C[C@@H]1CN([C@H](C)CO)C(=O)c2cc(C#CC3CC3)cnc2O[C@@H]1CN(C)Cc1ccccc1C(=O)O | . | . | .
12 | C[C@H]1CN([C@@H](C)CO)C(=O)c2cc(C#CC3CCCCC3)cnc2O[C@@H]1CN(C)S(C)(=O)=O | . | . | .

item | Yeast UUG start | MC4R ag barr | ALR inh
1 | 18.1 | . | .
2 | -3.6 | . | .
3 | -14.7 | 2.4 | 85.1*
4 | -22.5 | -1.0 | 98.3*
5 | -22.6 | 0.0 | 54.8
6 | . | -2.0 | .
7 | -14.3 | -0.7 | 99.3*
8 | -0.5 | . | .
9 | -2.7 | 0.1 | 91.9*
10 | 16.5 | . | .
11 | 5.5 | . | .
12 | 13.0 | . | .

# Next structures:
item | Molecule | MC4R antag cAMP | NALP1 inh | HDAC3 inh
13 | COc1cc(C(=O)N/N=C/c2sc(=O)n(-c3ccccc3)c2Cl)cc(OC)c1OC | -0.9 | 22.7 | 2.2
14 | O=C(N/N=C/c1sc(=O)n(-c2ccccc2)c1Cl)c1ccncc1 | -4.4 | 22.9 | 9.5
15 | CC(=O)c1cc2ccc(O)cc2oc1=O | -1.2 | -44.1 | -119.9
16 | Cc1ccc(N=c2oc3cc(O)ccc3cc2C(N)=O)cc1 | 3.8 | 2.4 | -12.8
17 | COc1ccccc1NS(=O)(=O)c1ccc2oc(SCC(C)=O)nc2c1 | 0.6 | 5.8 | 42.0*
18 | CCOC(=O)CSc1nc2cc(S(=O)(=O)Nc3ccccc3OC)ccc2o1 | 22.7 | 12.7 | 0.5
19 | Cc1noc(C)c1NC(=O)N(C)C[C@@H]1OCCCC[C@H](C)Oc2ccc(NS(=O)(=O)c3ccc(Cl)cc3)cc2C(=O)N([C@@H](C)CO)C[C@@H]1C | . | . | .
20 | COCCn1c(SCC(=O)N2CCCCC2)nc2c(c1=O)SCC2 | 5.7 | 8.3 | -5.7
21 | COCCn1c(SCC(=O)c2ccccc2)nc2c(c1=O)SCC2 | 1.8 | 10.3 | 21.3
22 | CCn1c(SCc2cccc(F)c2)nc2c(c1=O)SCC2 | 15.2 | 9.7 | 0.2
23 | COCCCn1c(SCC(=O)c2ccccc2)nc2ccccc2c1=O | 23.6 | -14.4 | ?
24 | COCCn1c(SCC(=O)c2ccccc2)nc2ccccc2c1=O | -3.4 | -0.3 | 12.1

item | Yeast UUG start | MC4R ag barr | ALR inh
13 | -7.1 | -3.2 | 2.1
14 | . | -3.5 | 97.8*
15 | -6.3 | -0.5 | .
16 | -26.7 | -0.1 | 95.7*
17 | 5.8 | -0.2 | 5.1
18 | -1.2 | 1.2 | -5.8
19 | 8.3 | . | .
20 | -10.6 | -2.9 | -3.5
21 | -6.2 | -0.6 | 93.8*
22 | 15.5 | -0.4 | 96.5*
23 | . | -0.8 | 2.3
24 | . | 0.8 | 97.5*

# New compounds follow
item | Molecule | MC4R antag cAMP | NALP1 inh | HDAC3 inh
25 | CCCN(C)C[C@@H]1OCCCC[C@H](C)Oc2ccc(N(C)C)cc2C(=O)N([C@H](C)CO)C[C@@H]1C | . | . | .
26 | O=S(=O)(Nc1cccc2c1CCCC2)c1ccc(Cl)cc1 | 11.7 | 44.0 | 8.0
27 | Cc1ccc(C(=O)CN2/C(=C(\O)c3ccccc3)C(=O)c3ccccc3S2(=O)=O)c(C)c1 | -2.5 | 4.6 | 1.6
28 | Cc1ccc(C(=O)CN2C(=O)c3ccccc3S2(=O)=O)cc1 | 9.2 | 8.2 | -3.8
29 | O=C(C[C@H]1C=C[C@H](NC(=O)Nc2ccc(F)cc2)[C@@H](CO)O1)NCc1cccc(F)c1 | . | . | .
30 | COc1ccc(CNCCC(c2ccccc2)c2ccc3c(c2)OCO3)cc1 (stereo not given) | -0.3 | 27.3* | 7.1
31 | COc1ccccc1C(CCNCc1ccccc1)c1ccc(OC(C)C)cc1 (stereo not given) | 10.7 | 38.2 | 5.0

item | Yeast UUG start | MC4R ag barr | ALR inh
25 | 0.2 | . | .
26 | -3.1 | 0.0 | 84.2*
27 | -15.1 | 12.4* | 6.8
28 | -12.9 | -1.6 | -17.6
29 | -11.9 | . | .
30 | -7.1 | 9.1* | -14.2
31 | -9.6 | 9.0* | -3.6

# Grouped by structure, the compounds so far with four or more nitrogen atoms
item | Molecule | MC4R antag cAMP | NALP1 inh | HDAC3 inh
1 | Cc1noc(C)c1S(=O)(=O)Nc1ccc2c(c1)C(=O)N([C@@H](C)CO)C[C@@H](C)[C@H](CN(C)C(=O)CCC(F)(F)F)OCCCC[C@H](C)O2 | . | . | .
14 | O=C(N/N=C/c1sc(=O)n(-c2ccccc2)c1Cl)c1ccncc1 | -4.4 | 22.9 | 9.5
19 | Cc1noc(C)c1NC(=O)N(C)C[C@@H]1OCCCC[C@H](C)Oc2ccc(NS(=O)(=O)c3ccc(Cl)cc3)cc2C(=O)N([C@@H](C)CO)C[C@@H]1C | . | . | .

item | Yeast UUG start | MC4R ag barr | ALR inh
1 | 18.1 | . | .
14 | . | -3.5 | 97.8*
19 | 8.3 | . | .
